# Assay results published in patent US20210261677A1.
# Target: recombinant human PD-L1-His protein (Origincell Therapeutics Co., Ltd.) (human) (UniProt Q9NZQ7)
# Assay: BLI (Octet RED384), antibody on AHC sensor, PD-L1-His in solution
substance,measurement,value
anti-PD-L1 antibody Avelumab,Kd,1.03 nM
same,koff,0.000305 s⁻¹
same,kon,296000 M⁻¹ s⁻¹
